Test results reported in article PMC5267519, “Evaluation of a Novel Renewable Hepatic Cell Model for Prediction of Clinical CYP3A4 Induction Using a Correlation-Based Relative Induction Score Approach” (Drug Metabolism and Disposition, 2017).

Experiments:
[1] = tested on: CYP3A4 mRNA
[2] = tested on: CYP3A4

COc1cc(NC(C)CCCN)c2ncccc2c1 (centres unmarked) [Primaquine]
CYP3A4 mRNA expression induction response (in words) [1]: no induction response
CYP3A4 enzyme activity induction response (in words) [2]: no induction response
